# Measured values reported in patent publication US9877967B2.
# Only a part of the results on these compounds is given; other tests are left out.
# System: rats exposed to high dose furosemide and a low sodium diet and renal impairment
# Experiment: Protective effect of L-97-1 against renal impairment in low-sodium rats (creatinine clearance)
# Conditions: 24-hr values extrapolated from 5-hr urine collection
# Method: Groups of 8 male Sprague-Dawley rats weighing 250±20 g are employed. Rats are given an oral dose of furosemide at 100 mg/kg on day −7 and then placed on a low sodium diet (0.03% Na^+ wt/wt) for 7 days prior to use in acute experiment (day 0). Furosemide alone, L-97-1 alone, or furosemide in combination with L-97-1 are administered. L-97-1 is administered by oral gavage. Furosemide is administered IV. A 5-hr urine collection is performed. Terminal bleed is collected for measurements of serum electrolytes (Na^+ and K^+) and creatinine. Urine volume is measured and then centrifuged (400 g, 10 min) and assayed for Na^+ and K^+ concentrations, and creatinine with an Automatic Analyzer (Toshiba, TBA 1200 FR). Urine volume and urinary electrolytes are calculated and expressed per 100 g of animal body weight.
# The total electrolytes (sodium and potassium) and creatinine in serum and urine are measured. Urine volume was collected over 5 hr. The 24-hr values for creatinine clearance and the fractional excretion of sodium are extrapolated from the 5-hr values. The 5-hr endogenous creatinine clearance (CCr) is used as a measure of glomerular filtration rate. […]
# The mean±SEM values for each treatment group is calculated. […]
structure (smiles),measurement,setting,value
CCCn1c(=O)c2c(nc(Cc3ccccc3)n2CCN(CC)CCO)n(CCc2ccc(N)cc2)c1=O,"Change in creatinine clearance (Ccr) from baseline Ccr (vehicle control, Group 4)","L-97-1 alone 50 mg/kg PO (Group 3) compared to furosemide alone 30 mg/kg IV (Group 1), P<0.05",significantly increased
same,"Change in creatinine clearance (Ccr) from baseline Ccr (vehicle control, Group 4)",furosemide 30 mg/kg IV plus L-97-1 50 mg/kg PO (Group 2) compared to furosemide alone (Group 1),increased
